Reference: PubChem BioAssay AID434973 (Sanford-Burnham Center for Chemical Genomics, 2010)
The entries are a selection whose mix differs from that of the whole data set. Some structures show a salt or complex split into parts, the way the source records it. Calls of active or inactive are those of the source.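 How the source made its calls: active means inhibition above about 50% at the single test dose (limit read from the data); inactive means the rest.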

Chains of the proteins cited; added tags and fusions are not shown. Residues count along the entry.
UniProt Q9BQF6, 706-1050 limits assumed: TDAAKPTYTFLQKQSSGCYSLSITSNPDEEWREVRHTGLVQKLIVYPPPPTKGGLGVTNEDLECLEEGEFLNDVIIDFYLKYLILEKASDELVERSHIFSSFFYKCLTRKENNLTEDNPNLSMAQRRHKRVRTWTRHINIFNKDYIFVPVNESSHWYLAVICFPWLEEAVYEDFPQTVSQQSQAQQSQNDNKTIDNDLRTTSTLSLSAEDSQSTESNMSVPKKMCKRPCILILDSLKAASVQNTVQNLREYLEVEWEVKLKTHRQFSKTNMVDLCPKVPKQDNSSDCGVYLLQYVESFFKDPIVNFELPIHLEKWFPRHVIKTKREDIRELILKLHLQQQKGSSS

molecular target: Sentrin-specific protease 7 (Homo sapiens) (UniProt Q9BQF6); experiment: blockers of human SENP7 peptidase activity – biochemical, luminescence, uHTS, primary screen (AID 434973); conditions: recombinant SENP7, Z-RLRGG-aminoluciferin luminescence, 40 min; at 5 µM; stronger effect = higher value;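 further: plate controls were DMSO with enzyme for no effect and no enzyme buffer wells for full effect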

| SMILES | inhibition |
| --- | --- |
| COc1ccccc1OP(C)(=O)Nc1ccc(C)c(C)c1 (configuration not stated) | inactive: -1.5% |
| COc1ccc(OP(C)(=O)Nc2ccccc2Br)cc1 (configuration not stated) | inactive: -1.89% |
| Cc1cc(C)cc(OP(C)(=O)Nc2cccc(C(F)(F)F)c2)c1 (configuration not stated) | inactive: -3.32% |
| CP(=O)(Nc1ccc(Cl)cc1Cl)Oc1ccccc1 (configuration not stated) | inactive: 0.935% |
| CP(=O)(OCCOc1ccccc1)OCCOc1ccccc1 | inactive: 2.34% |
| Cc1nc2ccc3ccccc3c2o1.O=[N+]([O-])c1cc([N+](=O)[O-])c(O)c([N+](=O)[O-])c1 | inactive: 8.51% |
| COc1ccc(OP(C)(=O)Nc2ccccn2)cc1 (configuration not stated) | inactive: 4.58% |
| CN(C)CCOC(=O)C(O)(c1ccccc1)C1CCCC1 (configuration not stated) | inactive: -4.64% |
| COc1ccccc1OP(C)(=O)Nc1ccc(Br)cc1 (configuration not stated) | inactive: -5.33% |
| CP(=O)(Nc1ccccn1)Oc1ccccc1 (configuration not stated) | inactive: 2.99% |
| COc1ccccc1OP(C)(=O)Nc1ccc(C)cc1C (configuration not stated) | inactive: 14.5% |
| CCc1ccc(OP(C)(=O)O)cc1 | inactive: 1.12% |
| Cc1c(NP(C)(=O)Oc2ccc(C(C)C)cc2)c(=O)n(-c2ccccc2)n1C (configuration not stated) | inactive: 4.43% |
| O=[N+]([O-])c1cc([N+](=O)[O-])c(Nc2ccccn2)c([N+](=O)[O-])c1 | inactive: 25.5% |
| COc1ccccc1OP(C)(=O)Nc1c(C)n(C)n(-c2ccccc2)c1=O (configuration not stated) | inactive: 8.14% |
| O=C(OCCCN1CCCC1)C(O)(c1ccccc1)C1CCCCC1 (configuration not stated) | inactive: -1.51% |
| CP(=O)(Oc1ccccc1)N1CCOC1=O (configuration not stated) | inactive: 2.78% |
| CCc1ccc(OP(C)(=O)Nc2cccnc2)cc1 (configuration not stated) | inactive: -6.89% |
| CCN(CC)CC(O)COC(=O)C(O)(c1ccccc1)C1CCCCC1 (configuration not stated) | inactive: -1.38% |
| COc1ccc(OP(C)(=O)Nc2ccc(Br)cc2)cc1 (configuration not stated) | inactive: 2.58% |
| CN(C)C(=O)c1c([N+](=O)[O-])cc([N+](=O)[O-])cc1[N+](=O)[O-] | inactive: 17.4% |
| COc1ccccc1OP(C)(=O)Nc1ccccc1Br (configuration not stated) | inactive: 3.51% |

| SMILES | inhibition |
| --- | --- |
| CC(C)(C)c1ccc(OP(C)(=O)O)cc1 | inactive: -0.0661% |
| CP(=O)(Nc1ccc(Cl)cc1)Oc1ccc(F)cc1 (configuration not stated) | inactive: 2.22% |
| CCOC(=O)c1ccc(NP(C)(=O)Oc2ccc(Cl)cc2)cc1 (configuration not stated) | inactive: 2.68% |
| CP(=O)(OC12CC3CC(CC(C3)C1)C2)OC12CC3CC(CC(C3)C1)C2 | inactive: 2.06% |
| Nc1ccc2c(ccc3cccnc32)n1.O=[N+]([O-])c1cc([N+](=O)[O-])c(O)c([N+](=O)[O-])c1 | inactive: 3.18% |
| CN(C)CCOC(=O)C(O)(c1ccccc1)C1CCCCC1 (configuration not stated) | inactive: 4.97% |
| COc1ccc(NP(C)(=O)Oc2ccccc2OC)cc1 (configuration not stated) | inactive: -4.17% |
| COc1ccc(OP(C)(=O)Nc2cccc(Br)c2)cc1 (configuration not stated) | inactive: 5.47% |
| O=[N+]([O-])c1cc([N+](=O)[O-])c(NCC2CCS(=O)(=O)C2)c([N+](=O)[O-])c1 (configuration not stated) | inactive: -11.4% |
| CCOP(C)(=S)SCC(=O)NC(C)(CC)C(=O)O (configuration not stated) | inactive: 1.16% |
| CP(=O)(Nc1ccc(SC(F)(F)F)cc1)Oc1ccc(F)cc1 (configuration not stated) | inactive: 4.56% |
| Cc1ccccc1NP(C)(=O)Nc1ccccc1C | inactive: -6.75% |
| CP(=O)(Nc1ccc2c(c1)OCCO2)Oc1ccccc1 (configuration not stated) | inactive: -2.49% |
| CP(=O)(Nc1ccccc1F)Oc1ccccc1 (configuration not stated) | inactive: 0% |
| CC(C)c1ccc(OP(C)(=O)Nc2ccc(SC(F)(F)F)cc2)cc1 (configuration not stated) | inactive: -6.35% |
| COc1ccc2c(c1O)-c1c(O)c(OC)cc3c1[C@H](C2)[N+](C)(C)CC3.O=[N+]([O-])c1cc([N+](=O)[O-])c([O-])c([N+](=O)[O-])c1[O-] | inactive: 2% |
| O=C(OC1CN2CCC1CC2)c1ccc([N+](=O)[O-])cc1 (configuration not stated) | inactive: 16.7% |
| O=C(OCCN1CCN(CCOCc2ccccc2)CC1)C(O)(c1ccccc1)c1ccccc1 | inactive: 3.02% |
| CCOC(=O)c1ccc(NP(C)(=O)Oc2ccc(F)cc2)cc1 (configuration not stated) | inactive: 7.64% |
| COc1ccc(OP(C)(=O)Nc2ccc(SC(F)(F)F)cc2)cc1 (configuration not stated) | inactive: -1.72% |
| CP(=O)(Nc1ccccc1)Oc1ccc(F)cc1 (configuration not stated) | inactive: -12.5% |
| O=[N+]([O-])c1cc([N+](=O)[O-])c(OC2CCCCC2O)c([N+](=O)[O-])c1 (configuration not stated) | inactive: -3.38% |

| SMILES | inhibition |
| --- | --- |
| CCCCCOc1ccc(NP(C)(=O)Oc2ccc(Cl)cc2Cl)cc1 (configuration not stated) | inactive: -2.92% |
| CCN(CC)CCCOC(=O)C(O)(c1ccccc1)C1CCCCC1 (configuration not stated) | inactive: 4.05% |
| O=C(O)c1cccc(Nc2c([N+](=O)[O-])cc([N+](=O)[O-])cc2[N+](=O)[O-])c1 | inactive: -3.24% |
| CC1=NCCc2c1[nH]c1ccccc21.O=[N+]([O-])c1cc([N+](=O)[O-])c(O)c([N+](=O)[O-])c1 | inactive: -3.17% |
| CCOC(=O)c1ccc(NP(C)(=O)Oc2cc(C)cc(C)c2)cc1 (configuration not stated) | inactive: 4.72% |
| Cc1cc(C)cc(OP(C)(=O)Nc2ccc(C)cc2C)c1 (configuration not stated) | inactive: 6.01% |
| COc1ccccc1OP(C)(=O)Nc1cccc(Br)c1 (configuration not stated) | inactive: 2.76% |
| Cc1ccc(C)c(NP(C)(=O)Oc2ccccc2)c1 (configuration not stated) | inactive: 7.87% |
| Cc1cc(C)cc(OP(C)(=O)Nc2ccccn2)c1 (configuration not stated) | inactive: 4.62% |
| CP(=O)(Nc1cccc(Br)c1)Oc1ccccc1 (configuration not stated) | inactive: 3.13% |
| O=[N+]([O-])c1cc([N+](=O)[O-])c(-n2nnc3ccccc32)c([N+](=O)[O-])c1 | inactive: 1.39% |
| Cc1nc2ccc3ccccc3c2s1.O=[N+]([O-])c1cc([N+](=O)[O-])c(O)c([N+](=O)[O-])c1 | inactive: -5.66% |
| O=[N+]([O-])c1cc([N+](=O)[O-])c(-c2cnn(-c3ccccc3)c2)c([N+](=O)[O-])c1 | inactive: 0.0804% |
| CC1=C2N=C(C=C3N=C(C(C)=C4[N-][C@@](C)([C@@H]5N=C1[C@](C)(CCC(=O)NC[C@@H](C)OP(=O)([O-])O[C@H]1[C@@H](O)[C@@H](n6cnc7cc(C)c(C)cc76)O[C@@H]1CO)[C@H]5CC(N)=O)[C@@](C)(CC(N)=O)[C@@H]4CCC(N)=O)[C@@](C)(CC(N)=O)[C@@H]3CCC(N)=O)C(C)(C)[C@@H]2CCC(N)=O.[C-]#N.[Co+3] | active: 67.8% |
| O=[N+]([O-])c1cc([N+](=O)[O-])c(Nc2nnnn2CCO)c([N+](=O)[O-])c1 | inactive: -6.65% |
| CCOC(=O)C(CC)C1=NC(C)(C)Cc2ccccc21.O=[N+]([O-])c1cc([N+](=O)[O-])c(O)c([N+](=O)[O-])c1 (configuration not stated) | inactive: 3.03% |
| CCCOc1ccc(NP(C)(=O)Oc2ccc(Cl)cc2)cc1 (configuration not stated) | inactive: -9.05% |
| CP(=O)(Nc1ccc(SC(F)(F)F)cc1)Oc1ccccc1 (configuration not stated) | inactive: -4.59% |
| COc1ccccc1OP(C)(=O)Nc1c(C)cccc1C (configuration not stated) | inactive: 2.27% |
| CN1CCCCC1COC(=O)C1(O)c2ccccc2CCc2ccccc21 (configuration not stated) | inactive: -0.332% |
| CP(=O)(Nc1ccccc1Br)Oc1ccccc1 (configuration not stated) | inactive: 1.07% |
| COc1ccccc1OP(C)(=O)Nc1ccccc1 (configuration not stated) | inactive: 0.27% |

| SMILES | inhibition |
| --- | --- |
| CP(=S)(Nn1cnnc1)Oc1ccccc1 (configuration not stated) | inactive: -8% |
| CP(=O)(NC(=O)Nc1ccccc1)Oc1ccccc1 (configuration not stated) | inactive: 14.2% |
| CCc1ccc(OP(C)(=O)N2CCN(c3ccc([N+](=O)[O-])cc3)CC2)cc1 (configuration not stated) | inactive: 5.67% |
| Cc1cc(C)cc(OP(C)(=O)Nc2ccc(SC(F)(F)F)cc2)c1 (configuration not stated) | inactive: 6.2% |
| Cc1cccc(C)c1OP(C)(=O)Nc1ccc(SC(F)(F)F)cc1 (configuration not stated) | inactive: -7.13% |
| CP(=O)(Nc1ccc(SC(F)(F)F)cc1)Oc1ccc(Cl)cc1 (configuration not stated) | inactive: 0.763% |
| CP(=O)(Oc1ccccc1)OC(c1ccccc1)C(F)(F)F (configuration not stated) | inactive: 3.53% |
| CP(=O)(Nc1ccccn1)Oc1ccc(Cl)cc1 (configuration not stated) | active: 68.1% |
| CCOC(=O)c1ccc(NP(C)(=O)Oc2ccc(OC)cc2)cc1 (configuration not stated) | inactive: -1.06% |
| O=[N+]([O-])c1cc([N+](=O)[O-])c(O)c([N+](=O)[O-])c1.c1ccc(Oc2ccncc2)cc1 | inactive: 6.67% |
| CCOP(C)(=S)SCC(=O)NC(C)C(=O)O (configuration not stated) | inactive: -1.31% |
| CCN(CC)CCCOC(=O)C(O)(c1ccccc1)c1ccccc1 | inactive: 0.591% |
| CC(C)(C)c1ccc(OP(C)(=O)Nc2ccc(SC(F)(F)F)cc2)cc1 (configuration not stated) | inactive: 3.32% |
| Cc1cccc(C)c1OP(C)(N)=O (configuration not stated) | inactive: 10% |
| O=[N+]([O-])c1cc([N+](=O)[O-])c(Nc2cccnc2)c([N+](=O)[O-])c1 | inactive: 17.7% |
| Cc1cc(C)cc(OP(C)(N)=O)c1 (configuration not stated) | inactive: -7.44% |
| COc1ccccc1OP(C)(=O)Nc1cc(Cl)ccc1C (configuration not stated) | inactive: 1.13% |
| COc1ccc(OP(C)(=O)Nc2cccc(F)c2)cc1 (configuration not stated) | inactive: 0.0295% |
| COc1ccccc1OP(C)(=O)Nc1ccc(C)cc1 (configuration not stated) | inactive: 4.58% |
| Cc1ccc(NP(C)(=O)Oc2ccccc2)c(C)c1 (configuration not stated) | inactive: 1.8% |
| CCOC(=O)c1ccc(NP(C)(=O)Oc2ccccc2)cc1 (configuration not stated) | inactive: 0.347% |
